Test results from ChEMBL document CHEMBL1132382 (J Med Chem, 1999).

Chains of the proteins cited; added tags and fusions are not shown. Lines headed by an entry give the natural chain unless they say otherwise; changes in a name come on top.
UniProt P00915: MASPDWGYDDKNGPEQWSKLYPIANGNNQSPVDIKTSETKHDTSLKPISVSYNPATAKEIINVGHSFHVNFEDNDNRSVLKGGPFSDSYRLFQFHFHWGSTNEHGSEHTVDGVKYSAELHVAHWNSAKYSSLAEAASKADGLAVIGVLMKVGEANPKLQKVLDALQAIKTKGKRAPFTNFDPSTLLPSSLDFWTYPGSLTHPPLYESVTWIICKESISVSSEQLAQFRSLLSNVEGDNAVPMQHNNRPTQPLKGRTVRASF

Molecular target: Carbonic anhydrase 1 (Homo sapiens, UniProt P00915)

- Ki: 15 µM
SMILES: NCC(=O)Nc1ccc(S(N)(=O)=O)cc1
